{"sequences": {"note": "Chains of the proteins cited; added tags and fusions are not shown. Residues count along the entry.", "UniProt O30463, 1-181": "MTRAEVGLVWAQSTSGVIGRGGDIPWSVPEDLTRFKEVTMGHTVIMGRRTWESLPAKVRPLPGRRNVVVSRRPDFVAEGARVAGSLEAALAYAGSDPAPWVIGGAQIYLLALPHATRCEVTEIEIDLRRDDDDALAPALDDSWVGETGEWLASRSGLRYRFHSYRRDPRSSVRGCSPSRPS"}, "source": "patent US20060142315A1", "about": "“Substituted biaryl piperazinyl-pyridine analogues” (priority 2003, published 2006)", "origin": "cited, not measured here", "biological_target": "Ma DHFR (Mycobacterium avium, UniProt O30463)", "details": "Ma versus human DHFR, Suling and coworkers; cited from earlier work"}
{"smiles": "Cc1cc(Cl)ccc1NCc1cnc2nc(N)nc(N)c2c1C", "note": "[Compound 47, 2,4-diamino-6-(2′-methyl-4′-chloroanilino)methyl-5-methylpyrido[2,3-d]pyrimidine]", "values": [{"measurement": "SI value", "value": 15}]}
